We go through one compound from patent EP3131902B1, “COMPOUNDS AS MODULATORS OF ROR GAMMA” (Boehringer Ingelheim International GmbH, priority 2014, dated 2015).

Amino acid sequences for entries named in this document (tags omitted). Residues count along the entry.
UniProt P51449, 269-508 limits assumed: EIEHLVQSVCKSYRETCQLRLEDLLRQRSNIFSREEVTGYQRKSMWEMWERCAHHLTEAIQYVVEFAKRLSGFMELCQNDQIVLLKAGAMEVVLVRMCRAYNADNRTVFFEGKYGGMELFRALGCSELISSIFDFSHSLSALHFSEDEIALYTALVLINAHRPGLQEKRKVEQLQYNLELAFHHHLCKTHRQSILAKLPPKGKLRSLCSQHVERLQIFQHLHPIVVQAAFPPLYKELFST

The experiment addresses RORγ (Homo sapiens, UniProt P51449). The experiment in a line: Reporter Gene Assay (RGA): nuclear receptor transactivation assay, inhibition of RORγ transactivation of a luciferase reporter in transiently transfected HEK 293 cells. The settings on record: read-out: RGA IC50. In kind it is cell-based. Background: Reporter assays use an easily measured gene product as a stand-in for the process of interest.

Broadly, the IC50 is the concentration that inhibits the measured activity by half.

Take `CCS(=O)(=O)c1ccc(CNc2nc3cnc(-c4c(C)ncnc4C4CC4)nc3n(C(C)C)c2=O)cc1`: the IC50 is 162 nM.
